# Measurements: article PMC5595237 (Nature, 2017)
# Sequences of proteins named here, by UniProt entry; tags and fusion partners are left off. A change or cut given only in a name is not applied to a line headed by its entry. Residues count along the entry.
# UniProt Q86V24, 100-386: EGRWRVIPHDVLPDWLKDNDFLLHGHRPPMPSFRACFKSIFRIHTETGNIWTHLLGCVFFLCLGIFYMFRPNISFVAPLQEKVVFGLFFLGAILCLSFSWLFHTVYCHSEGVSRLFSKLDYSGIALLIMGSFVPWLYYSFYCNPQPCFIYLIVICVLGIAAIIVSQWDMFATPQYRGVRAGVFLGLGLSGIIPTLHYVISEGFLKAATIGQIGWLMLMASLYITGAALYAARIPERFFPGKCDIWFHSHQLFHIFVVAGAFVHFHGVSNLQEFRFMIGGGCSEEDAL
# UniProt Q96A54: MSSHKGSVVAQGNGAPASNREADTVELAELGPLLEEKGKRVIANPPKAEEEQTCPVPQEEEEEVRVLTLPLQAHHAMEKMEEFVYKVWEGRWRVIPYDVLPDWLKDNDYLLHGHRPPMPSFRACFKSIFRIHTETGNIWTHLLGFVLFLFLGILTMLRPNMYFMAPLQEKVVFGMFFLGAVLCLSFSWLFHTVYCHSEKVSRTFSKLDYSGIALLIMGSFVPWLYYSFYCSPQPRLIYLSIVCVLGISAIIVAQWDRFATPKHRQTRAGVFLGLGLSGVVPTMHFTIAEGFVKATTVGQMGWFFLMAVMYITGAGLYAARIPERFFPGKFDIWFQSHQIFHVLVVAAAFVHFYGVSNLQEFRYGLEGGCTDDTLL
# B1: single chain variable fragment (scFv) of the anti-ADIPOR monoclonal antibody (scFv, V domains shown)
# VH: EVLLQQSGPELVKPGASVRITCKASGYTFTDFNMDWVKQSPGKSLEWIGDFNPNSGGSIYNQKFKDKATFTVDKSSSTAYMELRSLTFEDTAVYYCARETGTAWFAYWGQGTLVTVSA
# VL: DIQMTQSPASLSASVGETVTITCRASGNIHNFLAWYQQKQGKSPQVLVYNAKTLADGVPSRFSGSGSGTQYSLKINSLQPEDFGSYYCQQFWSTPYTFGGGTKLEIN
# B2: Fv fragment of the anti-ADIPOR antibody (as in the deposited entries 3WXV and 3WXW) (antibody, V domains shown)
# VH: B1 VH
# VL: B1 VL
# Experiments:
# Test in all cases: crystal structure
# [1] = target: N-terminally truncated construct of human AdipoR2 (residues 100-386) (human, UniProt Q86V24)
# [2] = target: human ADIPOR1 as crystallised in entry 3WXV (revised structure 5LXG) (human, UniProt Q96A54)
# [3] = target: human ADIPOR2 as crystallised in entry 3WXW (revised structure 5LWY, S2) (human, UniProt Q86V24)
binding result [1],binding result [2],binding result [3],Binder
binds,–,–,B1
–,binds,binds,B2
